Test results published in patent US20230047816A1 (priority 2018, published 2023).

Chains of the proteins cited; added tags and fusions are not shown.
UniProt Q16875, whole entry: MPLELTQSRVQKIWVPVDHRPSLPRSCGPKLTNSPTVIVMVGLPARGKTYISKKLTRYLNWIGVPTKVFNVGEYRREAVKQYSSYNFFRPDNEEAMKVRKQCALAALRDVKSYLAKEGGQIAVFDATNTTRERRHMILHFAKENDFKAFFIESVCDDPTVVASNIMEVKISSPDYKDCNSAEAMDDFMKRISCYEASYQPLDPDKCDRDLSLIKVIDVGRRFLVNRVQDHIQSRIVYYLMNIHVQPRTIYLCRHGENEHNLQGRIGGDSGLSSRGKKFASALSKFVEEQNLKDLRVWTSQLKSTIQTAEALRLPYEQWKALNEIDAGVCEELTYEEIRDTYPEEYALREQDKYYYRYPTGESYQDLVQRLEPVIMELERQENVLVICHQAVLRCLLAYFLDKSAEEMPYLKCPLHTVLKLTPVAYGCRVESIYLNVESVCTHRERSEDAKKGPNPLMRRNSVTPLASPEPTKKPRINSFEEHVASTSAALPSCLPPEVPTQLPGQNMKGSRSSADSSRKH

Biological target: Recombinant full length human PFKFB3 (Homo sapiens, UniProt Q16875)
Test: PFKFB3 kinase activity assay (ADP production, ADP-Glo)
Conditions: read-out: Enzymatic PFKFB3 activity: IC50; compounds of Formula (VII), example numbering restarted from 1

SMILES	IC50 [nM]
CS(C)(=O)=NC(=O)c1ccc(C(=O)Nc2cc(-c3ccc(Cl)cc3Cl)ccc2C(=O)O)c(C(=O)O)c1	< 500
CS(C)(=O)=NC(=O)c1ccc(C(=O)O)c(C(=O)Nc2cc(-c3ccc(Cl)cc3Cl)ccc2C(=O)O)c1	500 to 2000
COc1ccc(-c2c(C)sc(NC(=O)c3ccc(C(=O)N[C@@H](CO)C(=O)O)cc3C(=O)O)c2C#N)cc1	< 20000
